Experimental data from paper PMC7725785, “TRIB3 promotes MYC-associated lymphoma development through suppression of UBE3B-mediated MYC degradation” (Nature Communications, 2020).

Biological target: T1, UBE3B (His-tagged), recombinant (human, UniProt Q7Z3V4 1-1068)
T1 construct: recombinant UBE3B; also called purified UBE3B; source: Freestyle 293-F cells, transient transfection, purified (Ni-NTA, Superdex 200)
T1 sequence (looked up): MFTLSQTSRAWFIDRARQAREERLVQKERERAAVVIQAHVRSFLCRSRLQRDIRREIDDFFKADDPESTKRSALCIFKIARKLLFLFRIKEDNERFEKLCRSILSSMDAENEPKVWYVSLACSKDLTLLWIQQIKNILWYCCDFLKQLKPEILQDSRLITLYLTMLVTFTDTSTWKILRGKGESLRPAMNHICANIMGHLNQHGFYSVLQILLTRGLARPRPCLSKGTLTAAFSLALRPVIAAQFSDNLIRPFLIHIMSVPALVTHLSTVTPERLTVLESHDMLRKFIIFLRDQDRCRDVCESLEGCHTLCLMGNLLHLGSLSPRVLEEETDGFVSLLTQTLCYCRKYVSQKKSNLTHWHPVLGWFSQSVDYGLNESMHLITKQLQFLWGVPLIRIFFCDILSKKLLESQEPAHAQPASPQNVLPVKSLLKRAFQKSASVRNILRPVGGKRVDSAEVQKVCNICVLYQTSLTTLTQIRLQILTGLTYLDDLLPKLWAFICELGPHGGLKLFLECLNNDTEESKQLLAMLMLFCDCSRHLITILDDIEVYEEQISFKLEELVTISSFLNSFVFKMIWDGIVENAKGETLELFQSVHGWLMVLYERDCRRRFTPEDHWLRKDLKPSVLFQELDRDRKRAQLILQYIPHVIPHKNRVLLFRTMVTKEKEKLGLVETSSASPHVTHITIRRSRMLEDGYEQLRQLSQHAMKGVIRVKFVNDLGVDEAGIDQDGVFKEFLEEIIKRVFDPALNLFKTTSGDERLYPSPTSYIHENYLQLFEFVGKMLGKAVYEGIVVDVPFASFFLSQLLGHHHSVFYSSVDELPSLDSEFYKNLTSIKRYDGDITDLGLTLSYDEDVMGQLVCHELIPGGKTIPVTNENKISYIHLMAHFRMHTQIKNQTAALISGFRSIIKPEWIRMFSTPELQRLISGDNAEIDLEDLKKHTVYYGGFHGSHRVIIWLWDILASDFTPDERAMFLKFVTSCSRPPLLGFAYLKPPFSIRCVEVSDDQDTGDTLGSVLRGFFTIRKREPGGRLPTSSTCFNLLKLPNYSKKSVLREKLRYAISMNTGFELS
Test: co-IP; in vitro co-IP in the purified component system: His-tagged MYC (5 μg), His-tagged UBE3B (5 μg) and GST-tagged MAX mixed in 100 μl of 1% NP-40, 120 mM NaCl, 40 mM tris-HCl pH 7.4, 6 h at 4 °C
Conditions: both partners purified

binding result: binds
B1: Purified His-tagged MYC (natural protein, human, UniProt P01106 1-454, looked up)
chain: MDFFRVVENQQPPATMPLNVSFTNRNYDLDYDSVQPYFYCDEEENFYQQQQQSELQPPAPSEDIWKKFELLPTPPLSPSRRSGLCSPSYVAVTPFSLRGDNDGGGGSFSTADQLEMVTELLGGDMVNQSFICDPDDETFIKNIIIQDCMWSGFSAAAKLVSEKLASYQAARKDSGSPNPARGHSVCSTSSLYLQDLSAAASECIDPSVVFPYPLNDSSSPKSCASQDSSAFSPSSDSLLSSTESSPQGSPEPLVLHEETPPTTSSDSEEEQEDEEEIDVVSVEKRQAPGKRSESGSPSAGGHSKPPHSPLVLKRCHVSTHQHNYAAPPSTRKDYPAAKRVKLDSVRVLRQISNNRKCTSPRSSDTEENVKRRTHNVLERQRRNELKRSFFALRDQIPELENNEKAPKVVILKKATAYILSVQAEEQKLISEEDLLRKRREQLKHKLEQLRNSCA
notes: purified recombinant MYC; also called MYC-His; MYC protein; source: bought: Origene (TP760019), purified
